The target of experiment [1] is PI3-kinase p110-alpha/p85-alpha (Homo sapiens, UniProt P42336). The experiment in a line: Inhibition of human N-terminal His-tagged PI3Kalpha/p85alpha expressed in Spodoptera frugiperda using phosphatidylinositol as substrate.
In experiment [2] the target is T1, Phosphatidylinositol 4,5-bisphosphate 3-kinase catalytic subunit delta isoform (Homo sapiens, UniProt O00329).
T1 sequence (O00329 whole entry): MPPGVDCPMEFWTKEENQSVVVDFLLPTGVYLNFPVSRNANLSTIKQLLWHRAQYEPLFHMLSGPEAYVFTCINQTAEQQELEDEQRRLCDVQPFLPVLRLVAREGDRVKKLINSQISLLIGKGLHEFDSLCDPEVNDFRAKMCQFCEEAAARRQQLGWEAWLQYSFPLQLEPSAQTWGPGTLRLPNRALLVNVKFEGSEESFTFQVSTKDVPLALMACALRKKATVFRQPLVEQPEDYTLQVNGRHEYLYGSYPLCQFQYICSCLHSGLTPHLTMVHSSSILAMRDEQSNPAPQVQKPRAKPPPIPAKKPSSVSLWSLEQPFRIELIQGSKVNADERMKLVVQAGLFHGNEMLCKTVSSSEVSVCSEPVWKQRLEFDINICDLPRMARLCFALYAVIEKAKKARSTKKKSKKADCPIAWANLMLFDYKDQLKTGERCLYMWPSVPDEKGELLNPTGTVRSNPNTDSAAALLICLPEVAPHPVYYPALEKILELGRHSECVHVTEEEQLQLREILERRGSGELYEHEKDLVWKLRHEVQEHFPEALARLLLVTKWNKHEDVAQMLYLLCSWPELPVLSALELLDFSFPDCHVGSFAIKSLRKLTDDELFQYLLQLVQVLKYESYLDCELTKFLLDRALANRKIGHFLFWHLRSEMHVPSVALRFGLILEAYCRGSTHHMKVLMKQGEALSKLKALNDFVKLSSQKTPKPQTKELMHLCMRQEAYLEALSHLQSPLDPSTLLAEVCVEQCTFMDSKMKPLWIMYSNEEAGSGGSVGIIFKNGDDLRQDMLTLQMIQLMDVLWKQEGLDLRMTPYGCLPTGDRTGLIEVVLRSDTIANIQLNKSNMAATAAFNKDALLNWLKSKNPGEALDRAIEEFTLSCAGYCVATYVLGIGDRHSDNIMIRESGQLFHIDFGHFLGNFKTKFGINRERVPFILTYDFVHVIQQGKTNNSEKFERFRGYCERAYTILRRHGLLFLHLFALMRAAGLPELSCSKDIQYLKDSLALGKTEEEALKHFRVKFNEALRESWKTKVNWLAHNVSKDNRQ
The experiment in a line: Inhibition of PI3Kdelta (unknown origin).

The chains behind the UniProt entries cited, without tags or fusion partners.
UniProt P42336, whole entry: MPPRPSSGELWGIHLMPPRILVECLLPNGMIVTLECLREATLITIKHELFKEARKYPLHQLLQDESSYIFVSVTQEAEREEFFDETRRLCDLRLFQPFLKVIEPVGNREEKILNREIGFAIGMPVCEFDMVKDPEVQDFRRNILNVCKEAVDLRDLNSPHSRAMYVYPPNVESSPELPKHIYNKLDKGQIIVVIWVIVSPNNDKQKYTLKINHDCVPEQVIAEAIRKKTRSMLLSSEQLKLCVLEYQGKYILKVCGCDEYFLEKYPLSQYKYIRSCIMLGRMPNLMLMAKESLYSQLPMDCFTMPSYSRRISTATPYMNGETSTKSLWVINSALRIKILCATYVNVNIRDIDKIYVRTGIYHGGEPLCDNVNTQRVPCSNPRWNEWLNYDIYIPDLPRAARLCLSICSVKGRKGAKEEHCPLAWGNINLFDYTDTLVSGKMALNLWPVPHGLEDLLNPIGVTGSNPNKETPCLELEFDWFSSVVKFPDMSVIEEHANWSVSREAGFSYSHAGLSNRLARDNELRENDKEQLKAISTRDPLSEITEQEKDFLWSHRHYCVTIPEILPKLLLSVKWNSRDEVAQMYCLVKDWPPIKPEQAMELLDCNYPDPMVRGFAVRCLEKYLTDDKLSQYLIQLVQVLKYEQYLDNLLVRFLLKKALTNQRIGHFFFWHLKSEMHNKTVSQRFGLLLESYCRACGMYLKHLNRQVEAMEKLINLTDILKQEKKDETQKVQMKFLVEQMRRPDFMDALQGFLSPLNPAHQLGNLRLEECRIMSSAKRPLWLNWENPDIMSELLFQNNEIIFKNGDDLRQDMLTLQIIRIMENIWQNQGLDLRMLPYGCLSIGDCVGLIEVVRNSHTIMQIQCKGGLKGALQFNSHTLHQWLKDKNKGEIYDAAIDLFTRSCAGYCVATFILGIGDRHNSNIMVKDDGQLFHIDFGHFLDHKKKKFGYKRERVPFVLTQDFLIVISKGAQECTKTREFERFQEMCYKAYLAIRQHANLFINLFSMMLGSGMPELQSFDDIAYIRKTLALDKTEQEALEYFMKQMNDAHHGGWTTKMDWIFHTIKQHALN

Some results are limits rather than exact numbers.

Take `Cc1csc2nc([C@H](C)Nc3ncnc4[nH]cnc34)c(-c3cccc(F)c3)c(=O)n12` [DEZAPELISIB]: the IC50 – broadly, the concentration at which inhibition is half-maximal – is greater than 10000 nM in experiment [1] and 31 nM in experiment [2].
